The assay in a line: Ratio of Ki value at -40 mV to that of -80 mV was determined. It counts as functional. In outline:
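Ki at GluR1 flop homomers in voltage-clamped Xenopus oocytes, from inhibition of 100 µM glutamate currents by co-applied antagonist, measured at holding potentials of -40 mV and -80 mV. The ratio is Ki(-40 mV)/Ki(-80 mV). Each Ki is the mean of two independent measurements in triplicate.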

With `CCCC(=O)NC(Cc1ccc(O)cc1)C(=O)NCCCCCCCCNCCCN` (configuration not stated), the Ratio came out at 123.

In the case of `CCCC(=O)NC(Cc1ccc(O)cc1)C(=O)NCCCCCCCCCNCCN` (configuration not stated), the Ratio is 15.

The record behind these values is ChEMBL document CHEMBL1135693, “Solid-phase synthesis of polyamine toxin analogues: potent and selective antagonists of Ca2+-permeable AMPA receptors” (J Med Chem, 2002).
